Data published in patent publication US9840494B2, “Quinazoline derivative” (Tianjin Hemay Oncology Pharmaceutical Co., Ltd., priority 2013, dated 2017).

Target: T1, EGFR (Homo sapiens, UniProt P00533)
T1 construct: purchased Invitrogen Company PV3872
Assay: Inhibitory effect on tyrosine kinase activity of EGFR
Format: biochemical
Conditions: EGFR 40 ng/ml, ATP 10 μM, 30 min
Method: EGFR: Invitrogen Company, Catalogue No. PV3872
pGT (poly(glutamic acid-tyrosine)): Sigma-Aldrich Company, Catalogue No. P0275
The assay method is briefly described as follows.
3.1.1 At 4° C., 96-well microtiter plate was coated with 0.2 mg/mL pGT (as the substrate of enzyme) dissolved in PBS (phosphate buffer) overnight. Unbound pGT was washed away with a washing solution (0.05% Tween −20 in PBS), and the plate was dried in the air at room temperature for 2 h. […]
3.1.3 A final concentration of 1% SDS (sodium dodecyl sulfate) was added to terminate the reaction. […] OD value, which is positively correlated with the phosphorylation degree of tyrosine residues of pGT, was measured at 450 nm
3.2 The concentrations of the kinase and substrate ATP were determined with reference to the literature “Optimization of a LanthaScreen Kinase assay for EGFR (ErbB1)”(https://tools.lifetechnologies.com/content/sfs/manuals/EGFR_LanthaScreen_actity_Europium.pdf), published by Invitrogen Corporation. […]
The mean value of inhibition rate and SD (standard deviation) were determined by duplicate wells. […]

**Q.** How did the IC50 turn out when “N-[4-(3-chloro-4-fluorophenylamino)-7-(2-methoxyethoxy)quinazolin-6-yl]-2-[1-(2-methoxyethyl)piperidin-4-ylidene]acetamide diphosphate [Compound 7]” was run?
**A.** The IC50 was 0.5 nM.
